# Laboratory results: ChEMBL document CHEMBL1126858, “Synthesis of (R,S)-trans-8-hydroxy-2-[N-n-propyl-N-(3'-iodo-2'-propenyl)amino]tetral in (trans-8-OH-PIPAT): a new 5-HT1A receptor ligand” (J Med Chem, 1993)
# Amino acid sequences for entries named in this document (tags omitted).
# UniProt P19327, whole entry: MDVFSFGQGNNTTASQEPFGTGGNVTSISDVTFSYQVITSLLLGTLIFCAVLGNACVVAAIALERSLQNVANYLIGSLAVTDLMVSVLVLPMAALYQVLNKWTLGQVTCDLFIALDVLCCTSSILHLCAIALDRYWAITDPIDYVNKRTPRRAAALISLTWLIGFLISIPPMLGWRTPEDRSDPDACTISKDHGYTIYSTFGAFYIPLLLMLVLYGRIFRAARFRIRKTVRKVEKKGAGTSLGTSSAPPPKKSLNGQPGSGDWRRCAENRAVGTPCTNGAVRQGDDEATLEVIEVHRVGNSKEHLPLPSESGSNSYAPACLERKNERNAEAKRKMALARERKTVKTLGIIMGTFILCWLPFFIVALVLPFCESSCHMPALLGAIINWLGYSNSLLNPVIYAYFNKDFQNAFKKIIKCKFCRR
# Target: 5-hydroxytryptamine receptor 1A (Rattus norvegicus, UniProt P19327)
# Experiment: Binding affinity towards 5-hydroxytryptamine 1A receptor by the displacement of [125I]trans-8-OH-PIPAT in membrane homogenates of hippocampal tissue of rat brain
# Assay type: tissue-based, Hippocampus
compound,measurement,value
NCCc1c[nH]c2ccc(O)cc12 [SEROTONIN],Ki,4.31 nM
